Experimental data as given in patent US5723464A, “Piperazine derivatives” (American Home Products Corporation, priority 1994, dated 1998).

Protein sequences, listed by entry. Tags and fused reporters are not part of them.
UniProt P19327, whole entry: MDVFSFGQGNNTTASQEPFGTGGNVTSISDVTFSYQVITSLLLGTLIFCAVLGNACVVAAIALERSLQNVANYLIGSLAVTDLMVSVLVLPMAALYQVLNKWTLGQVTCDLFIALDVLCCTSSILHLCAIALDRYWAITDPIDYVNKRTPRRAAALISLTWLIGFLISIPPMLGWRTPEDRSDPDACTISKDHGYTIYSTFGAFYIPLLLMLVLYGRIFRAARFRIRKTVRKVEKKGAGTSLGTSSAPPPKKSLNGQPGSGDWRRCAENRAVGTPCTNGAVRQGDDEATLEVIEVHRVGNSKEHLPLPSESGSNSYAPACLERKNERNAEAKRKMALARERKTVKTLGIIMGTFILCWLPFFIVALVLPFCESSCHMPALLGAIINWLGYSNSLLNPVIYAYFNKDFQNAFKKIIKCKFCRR

How the values were obtained:
5-HT1A receptor [1] = molecular target: T1, 5-HT1A receptor (Rattus norvegicus, UniProt P19327); assay: 5-HT1A receptor binding affinity in rat hippocampal membrane homogenate; conditions: for Ratio 5HT1A / α1 (binding selectivity): ratio of 5-HT1A binding to α1 binding; for IC50: read-out: 5HT1A binding IC50, rat hippocampal membrane homogenate
α1 receptor = α1 receptor binding affinity; conditions: read-out: α1 binding IC50
5-HT1A receptor [2] = molecular target: T1, 5-HT1A receptor; assay: Oral 5-HT1A receptor antagonist activity: antagonism of 8-OH-DPAT syndrome in rats; conditions: for 5-HT1A antagonist activity MED: po, 60 min before i.v. 8-OH-DPAT, lowest dose at which ED50 confidence limits do not overlap vehicle; for 5-HT1A antagonist Ratio (ED50 antagonist @ 3mg/kg po)/ED50 vehicle: ED50 of 8-OH-DPAT (i.v.) after test compound 3 mg/kg p.o. divided by ED50 after vehicle

Ratio 5HT1A / α1 (binding selectivity) (5-HT1A receptor [1]; tested form: 2HCl)	IC50 (5-HT1A receptor [1]; tested form: 2HCl)	IC50 (α1 receptor; tested form: 2HCl)	5-HT1A antagonist activity MED (5-HT1A receptor [2]; tested form: 2HCl)	Compound	other results
15.5	1.8 nM	28 nM		COc1ccccc1N1CCN(CCN(C(=S)C2CCCCC2)c2ccccn2)CC1	
				COc1ccccc1N1CCN(CCN(C(=O)C(C)(C)C)c2ccccn2)CC1	Ratio 5HT1A / α1 (binding selectivity) (5-HT1A receptor [1]; tested form: 3HCl): 4; IC50 (5-HT1A receptor [1]; tested form: 3HCl): 60 nM; IC50 (α1 receptor; tested form: 3HCl): 245 nM
69.8	8 nM	558 nM	10 mg/kg	O=C(C1CCCCC1)N(CCN1CCN(c2cccc3c2CCCC3)CC1)c1ccccn1	
12.4	3.7 nM	46 nM	< 10 mg/kg	COc1ccccc1N1CCN(CCN(C(=O)C23CC4CC(CC(C4)C2)C3)c2ccccn2)CC1	
				O=C(C1CCCCC1)N(CCN1CCN(c2ccccc2O)CC1)c1ccccn1	5-HT1A antagonist Ratio (ED50 antagonist @ 3mg/kg po)/ED50 vehicle (5-HT1A receptor [2]; tested form: HCl): 7.0; 5-HT1A antagonist activity MED (5-HT1A receptor [2]; tested form: HCl): 10 mg/kg
			1 to 3 mg/kg	COc1ccccc1N1CCN(C(C)CN(C(=O)C2CCCCC2)c2ccccn2)CC1 (stereo not drawn)	
				O=C(C1CCCCC1)N(CCN1CCN(c2nccc3ccccc23)CC1)c1ccccn1	Ratio 5HT1A / α1 (binding selectivity) (5-HT1A receptor [1]; tested form: 3HCl): 520; IC50 (5-HT1A receptor [1]; tested form: 3HCl): 2.7 nM; IC50 (α1 receptor; tested form: 3HCl): 1400 nM; 5-HT1A antagonist activity MED (5-HT1A receptor [2]; tested form: 3HCl): 10 mg/kg
				COc1ccccc1N1CCN([C@H](C)CN(C(=O)C2CCCCC2)c2ccccn2)CC1	Ratio 5HT1A / α1 (binding selectivity) (5-HT1A receptor [1]): 104; IC50 (5-HT1A receptor [1]): 3 nM; IC50 (α1 receptor): 312 nM; 5-HT1A antagonist Ratio (ED50 antagonist @ 3mg/kg po)/ED50 vehicle (5-HT1A receptor [2]): 7.4; 5-HT1A antagonist activity MED (5-HT1A receptor [2]): 0.3 mg/kg
347	2.3 nM	798 nM	3 mg/kg	O=C(C1CCCCC1)N(CCN1CCN(c2cccc3ccccc23)CC1)c1ccccn1	
2.5	90 nM	140 nM		COc1ccccc1N1CCN(CCN(C(=O)C2CCCCC2)c2nccs2)CC1	
13	4.9 nM	64 nM	3 to 10 mg/kg	Cc1ccccc1N1CCN(CCN(C(=O)C2CCCCC2)c2ccccn2)CC1	
				COc1ccccc1N1CCN(CCN(C(=O)N2CCCCC2)c2ccccn2)CC1	Ratio 5HT1A / α1 (binding selectivity) (5-HT1A receptor [1]; tested form: 3HCl): 5.3; IC50 (5-HT1A receptor [1]; tested form: 3HCl): 14 nM; IC50 (α1 receptor; tested form: 3HCl): 74 nM; 5-HT1A antagonist activity MED (5-HT1A receptor [2]; tested form: 3HCl): 10 mg/kg
19.2	12 nM	230 nM	> 10 mg/kg	COc1ccccc1N1CCN(CCN(C(=O)c2ccccc2)c2ccccn2)CC1	
				O=C(C1CCCCC1)N(CCN1CCN(c2ccccc2F)CC1)c1ccccn1	Ratio 5HT1A / α1 (binding selectivity) (5-HT1A receptor [1]; tested form: maleate hydrate): 19.7; IC50 (5-HT1A receptor [1]; tested form: maleate hydrate): 6.4 nM; IC50 (α1 receptor; tested form: maleate hydrate): 126 nM
				COc1cc(F)ccc1N1CCN(CCN(C(=O)C2CCCCC2)c2ccccn2)CC1	Ratio 5HT1A / α1 (binding selectivity) (5-HT1A receptor [1]; tested form: 3HCl): 197; IC50 (5-HT1A receptor [1]; tested form: 3HCl): 1 nM; IC50 (α1 receptor; tested form: 3HCl): 197 nM; 5-HT1A antagonist activity MED (5-HT1A receptor [2]; tested form: 3HCl): 10 mg/kg
	147 nM			COc1ccc2ccccc2c1N1CCN(CCN(C(=O)C2CCCCC2)c2ccccn2)CC1	
93.9	4.1 nM	385 nM	> 10 mg/kg	O=C(C1CCCCC1)N(CCN1CCN(c2nsc3ccccc23)CC1)c1ccccn1	
				COc1ccc2cccc(N3CCN(CCN(C(=O)C4CCCCC4)c4ccccn4)CC3)c2c1	Ratio 5HT1A / α1 (binding selectivity) (5-HT1A receptor [1]; tested form: HCl): 10; IC50 (5-HT1A receptor [1]; tested form: HCl): 4 nM; IC50 (α1 receptor; tested form: HCl): 40 nM

Like-named read-outs stand apart in the source and are kept apart here.
